Where two headings read alike, the source gives them in different places.
Experiments:
GM16513 cells = type: cell-based; conditions: 3 days, PI positive cells (dead cells)
PEX405 cells = type: cell-based; conditions: 3 days, PI positive cells (dead cells)

Oxamflatin
% PI+ cells (GM16513 cells; 1.3 µM): 5%
% PI+ cells (GM16513 cells; 10 µM): 18%
% PI+ cells (PEX405 cells; 1.3 µM): 2%
% PI+ cells (PEX405 cells; 10 µM): 36%

— patent EP4410284A1, “COMPOUND AND METHOD FOR THE TREATMENT OF ZELLWEGER SPECTRUM DISORDER” (Apteeus, priority 2023, dated 2024)
